Measured values as given in BindingDB's records for 23148598.

Amino acid sequences for entries named in this document (tags omitted). Residues count along the entry.
UniProt P22303, 32-614 limits assumed: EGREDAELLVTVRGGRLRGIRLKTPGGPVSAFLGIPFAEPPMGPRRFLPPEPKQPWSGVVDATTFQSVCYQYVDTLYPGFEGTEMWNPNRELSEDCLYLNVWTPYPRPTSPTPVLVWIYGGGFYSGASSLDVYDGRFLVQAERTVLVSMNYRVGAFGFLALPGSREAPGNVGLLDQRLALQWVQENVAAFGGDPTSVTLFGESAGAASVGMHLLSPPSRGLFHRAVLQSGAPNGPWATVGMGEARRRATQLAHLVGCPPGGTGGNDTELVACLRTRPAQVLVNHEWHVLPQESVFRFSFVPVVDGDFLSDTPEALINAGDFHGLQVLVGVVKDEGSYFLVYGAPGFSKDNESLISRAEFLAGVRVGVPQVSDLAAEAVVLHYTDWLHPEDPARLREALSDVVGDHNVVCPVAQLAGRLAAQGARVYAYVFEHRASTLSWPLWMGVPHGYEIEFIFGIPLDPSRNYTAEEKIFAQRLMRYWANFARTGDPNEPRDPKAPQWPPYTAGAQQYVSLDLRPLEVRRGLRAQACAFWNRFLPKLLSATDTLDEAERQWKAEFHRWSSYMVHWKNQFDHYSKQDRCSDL

Target: Acetylcholinesterase (Homo sapiens, UniProt P22303)
Assay: ASSAY_NAME: ChEMBL_877957 (CHEMBL2188633) DESCRIPTION: Inhibition of human AChE

Compound | IC50 [µM]
COc1cc2c(cc1OC)C(c1ccccc1)N(CCCCCCc1cc(C)nc(CN=O)c1O)CC2 (stereo unspecified) | 300
COc1cc2c(cc1OC)C(c1ccccc1)N(CCCc1ccc(O)c(CN=O)n1)CC2 (stereo unspecified) | 260
COc1cc2c(cc1OC)C(c1ccccc1)N(CCCc1ccnc(CN=O)c1O)CC2 (stereo unspecified) | > 200
COc1cc2c(cc1OC)C(c1ccccc1)N(CCCCCc1ccnc(CN=O)c1O)CC2 (stereo unspecified) | 320
COc1cc2c(cc1OC)C(c1ccccc1)N(CCCCCc1cnc(CN=O)c(O)c1)CC2 (stereo unspecified) | > 500
COc1cc2c(cc1OC)C(c1ccccc1)N(CCCCCCc1ccc(O)c(CN=O)n1)CC2 (stereo unspecified) | > 400
